IC50 data for one compound are collected here from US11285156B2, “Substituted piperazines as KRAS G12C inhibitors” (Amgen Inc., priority 2018, dated 2022).

Chains of the proteins cited; added tags and fusions are not shown. Lines headed by an entry give the natural chain unless they say otherwise; changes in a name come on top.
UniProt P01116: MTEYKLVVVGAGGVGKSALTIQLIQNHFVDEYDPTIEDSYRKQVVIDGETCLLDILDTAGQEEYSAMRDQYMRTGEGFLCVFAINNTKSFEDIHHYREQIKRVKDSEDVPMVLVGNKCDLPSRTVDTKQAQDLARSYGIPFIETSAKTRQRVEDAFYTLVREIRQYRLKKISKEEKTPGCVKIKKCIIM

This assay concerns the target GDP-bound KRAS protein (aa 1-169), containing both G12C and C118A amino acid substitutions (Homo sapiens (Human), UniProt P01116, C118A/G12C). As to the kind of experiment: Coupled nucleotide exchange assay (SOS-mediated nucleotide exchange, AlphaScreen). As to conditions: read-out: Coupled exchange IC50 (5 min; μM); 5 min compound pre-incubation. The assay is classed as biochemical.

SMILES strings stand for the structures.

For the compound `C=CC(=O)N1C[C@H](C)N(c2nc(=O)n(-c3c(C(C)C)nc(CN(C)C)nc3C(C)C)c3nc(-c4ccccc4F)c(Cl)cc23)C[C@H]1C` [Example 160, 4-((2S,5R)-4-Acryloyl-2,5-dimethylpiperazin-1-yl)-6-chloro-1-(2-((dimethylamino)methyl)-4,6-diisopropylpyrimidin-5-yl)-7-(2-fluorophenyl)pyrido[2,3-d]pyrimidin-2(1H)-one], the IC50 was 0.081 µM.
